Reference: publication PMC9175271 (2022)

Amino acid sequences for entries named in this document (tags omitted).
UniProt P08173, whole entry: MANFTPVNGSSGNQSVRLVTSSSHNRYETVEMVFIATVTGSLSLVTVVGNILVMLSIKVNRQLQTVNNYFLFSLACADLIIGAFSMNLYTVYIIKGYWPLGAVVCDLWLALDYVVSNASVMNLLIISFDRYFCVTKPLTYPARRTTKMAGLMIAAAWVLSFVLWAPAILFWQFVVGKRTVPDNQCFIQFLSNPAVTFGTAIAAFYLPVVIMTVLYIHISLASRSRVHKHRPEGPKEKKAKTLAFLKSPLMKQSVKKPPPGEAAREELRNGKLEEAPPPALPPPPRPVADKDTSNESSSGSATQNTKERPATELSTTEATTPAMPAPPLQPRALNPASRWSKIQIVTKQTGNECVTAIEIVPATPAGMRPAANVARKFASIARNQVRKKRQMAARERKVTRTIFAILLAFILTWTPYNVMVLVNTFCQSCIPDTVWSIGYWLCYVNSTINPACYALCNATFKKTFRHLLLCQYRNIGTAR

Assays:
human M4 receptor [1] = target: T1, human M4 receptor (Homo sapiens, UniProt P08173); experiment: Live-cell microscopy competition binding with UR-CG072 on CHO-K1-hM4R cells
human M4 receptor [2] = target: T1, human M4 receptor; experiment: FA competition binding with UR-CG072 as reporter probe, M4 receptor BBV particles
human M4 receptor [3] = target: T1, human M4 receptor; experiment: FA competition binding with UR-MK342 as reporter probe, M4 receptor BBV particles

SMILES: CN1[C@@H]2C[C@@H](OC(=O)[C@H](CO)c3ccccc3)C[C@H]1[C@@H]1O[C@@H]12 [scopolamine]
- Ki (human M4 receptor [1]): 0.661 nM
- Ki (human M4 receptor [2]): 7.41 nM
- Ki (human M4 receptor [3]): 5.01 nM
